Experimental findings from patent US11702422B2, “Imidazopyridazines as modulators of IL-17” (Janssen Pharmaceutica NV, priority 2020, dated 2023) are described below.

By UniProt entry, the sequences of proteins in these tests, tags left out. Chains listed by the source or under a name are the forms on record and can include a tag or linker. Residues count along the entry.
UniProt Q16552, 24-154 with tags or gaps K93Q: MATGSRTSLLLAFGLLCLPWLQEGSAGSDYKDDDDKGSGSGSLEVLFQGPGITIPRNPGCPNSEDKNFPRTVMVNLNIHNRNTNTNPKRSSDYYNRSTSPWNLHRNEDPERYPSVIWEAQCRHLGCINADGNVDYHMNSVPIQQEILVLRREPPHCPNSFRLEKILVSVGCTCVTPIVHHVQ

The test system of test [1] is IL-17A-induced G-CSF production in human normal keratinocyte (NHK). Briefly: NHK Assay: IL-17A-induced G-CSF production in human normal keratinocytes. As to conditions: read-out: NHK IC50, adult normal human keratinocytes, IL-17A 5 ng/mL, 24 h, simple average if tested more than once. How it is done:
IL-17A acts directly on keratinocytes through binding to dimeric receptor IL-17RA/RC and drives the production of a number of inflammatory mediators known to be elevated in psoriasis lesional tissue. IL-17A small molecule inhibitors that block the IL-17A to interact with IL-17R would inhibit the IL-17A signaling in its targeted cells such as keratinocytes. The compound functional activity is evaluated for its impact on IL-17A-induced G-CSF production in human normal keratinocyte (NHK).
Adult normal human keratinocytes are cultured in keratinocyte growth medium (Lonza) in a flask till reaching ˜ 90% confluence, then cells are transferred to a 384-well plate at density of 3000-4000 cell/well. Recombinant human IL-17A (Gibco PHC9174) is pre-incubated with titrated compound or DMSO for 1 h at rt then added to the cell culture plate. The final concentration of IL-17A is 5 ng/mL and DMSO is 0.2%, in the culture containing 5% FBS. Cells are cultured/treated for 24 h at 37° C. Supernatants are collected and G-CSF production is measured through HTRF technology using Human G-CSF Kit (CisBio). G-CSF concentration was extrapolated from the standard curve and IC50 is determined using GraphPad Prism. Cell viability is also evaluated using CellTiter-Glo kit (Promega) and effect of compound on cell viability is compared to DMSO control.

Test [2] deals with IL-17A(FLAG-Tagged): IL-17RA(His-Tagged) (Homo sapiens, UniProt Q16552, K93Q). Briefly: IL-17A(FLAG-Tagged): IL-17RA(His-Tagged) Binding Disruption Eu-HTRF Assay. As to conditions: read-out: HTRF IC50, IL-17A/IL-17RA binding disruption, simple average if tested more than once. An excerpt:
IL-17A(FLAG-Tagged): IL-17RA(His-Tagged) Binding Disruption Eu-HTRF Assay
An antibody directed against the FLAG tag of IL-17A (SEQ ID NO:1) is labeled with the HTRF donor chromophore (Europium-cryptate). IL-17A is present as a dimer that is “locked into” this quaternary structure due to the formation of loop-spanning […] disulfide bridges. The construct of IL-17RA used in the assay excludes the […] portion of the receptor and is fused to a C-terminal 10×His tag (SEQ ID NO:2). An antibody directed against the His tag of the IL-17RA chimera is labeled with the HTRF acceptor chromophore (“D2”). The fluorescence-resonance energy transfer (FRET) depends on the vicinity of the donor chromophore to the acceptor, and interruption of the binding between the IL-17A and IL-17RA causes the reduction/loss of FRET. Therefore, this assay allows to evaluate the compound effect on the binding IL-17A and IL-17RA by monitoring the fluorescence intensity of donor vs acceptor. […]
40 nl of 2-fold serial diluted compound solution for total 22 dilution points is added into each well of a 1536-well, white, low-volume, non-binding plate (Greiner #782904), then 2 μl of FLAG tagged IL-17A at 2× final concentration (2.5 nM) in solution of PBS+0.01% Triton-X100 is added to each well. […] The HTRF intensities at the wavelength of donor (620 nm) and acceptor (665 nm) are measured using BMG Pherastar. […]
For orientation: TR-FRET usually uses a lanthanide donor and a delayed reading to cut background.

pIC50: −log10 of the molar value.

Regarding `O=C(N[C@H](c1cn2ncc([C@H](NC(=O)[C@H](O)CC(F)(F)F)C3CC3)cc2n1)C1CCC(F)(F)CC1)c1cnn(CC(F)(F)F)n1`, the pIC50 in test [1] is 6.00; in test [2] it was 6.47.
